From PubChem BioAssay AID1012 (Sanford-Burnham Center for Chemical Genomics, 2008)
The list shows a part of the results, in another mix than the full data. Some of these compounds have results that are not shown, active ones among them. Active and inactive are the calls of the source.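 The calls were made as follows: active = tissue-nonspecific alkaline phosphatase inhibition above about 50% at 20 µM in the single-dose screen (limit read from the data); inactive = the rest.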

The chains behind the UniProt entries cited, without tags or fusion partners.
UniProt P05186, whole entry: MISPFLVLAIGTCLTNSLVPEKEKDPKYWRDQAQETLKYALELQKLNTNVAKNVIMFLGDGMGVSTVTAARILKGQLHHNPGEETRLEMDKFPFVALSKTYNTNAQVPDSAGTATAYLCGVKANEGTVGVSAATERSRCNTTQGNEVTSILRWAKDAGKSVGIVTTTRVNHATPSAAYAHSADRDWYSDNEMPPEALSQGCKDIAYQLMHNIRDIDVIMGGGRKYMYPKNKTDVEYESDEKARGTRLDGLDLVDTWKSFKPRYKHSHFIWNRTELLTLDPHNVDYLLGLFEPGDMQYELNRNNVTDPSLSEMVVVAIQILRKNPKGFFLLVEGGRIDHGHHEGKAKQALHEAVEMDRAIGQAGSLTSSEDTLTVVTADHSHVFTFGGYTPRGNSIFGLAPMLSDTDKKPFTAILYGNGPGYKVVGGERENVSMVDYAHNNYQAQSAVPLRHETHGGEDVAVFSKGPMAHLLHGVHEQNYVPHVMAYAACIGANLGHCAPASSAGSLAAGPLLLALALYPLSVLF

The compounds below were run against Alkaline phosphatase, tissue-nonspecific isozyme (Homo sapiens) (UniProt P05186) (assay: human TNAP enzyme inhibitors, primary screen, biochemical, luminescent, no phosphate acceptor, uHTS (AID 1012;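 also: 0% = DMSO negative control and 100% = EDTA positive control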)). Conditions: purified TNAP, CDP-star luminescence, 30 min; at 20 µM; active compounds read high.
CN(C)C1CCCC1OC(=O)C(O)(c1ccccc1)c1ccccc1 (centres undefined) was tested, and the inhibition was inactive: -12.9%. For Cc1ccccc1C(=O)NCC1(N2CCCCC2)CCCCC1, the inhibition was inactive: -8.3%. CCN1CCCC(OC(=O)C2(O)c3ccccc3C=Cc3ccccc32)C1 (centres undefined) was tested, and the inhibition was inactive: -3.8%. With C=CCN1CCN(CCOC(=O)C(O)(c2ccccc2)c2ccccc2)CC1 the inhibition was inactive: -4.8%. With O=C(NCC1(N2CCCCC2)CCCCC1)c1cc([N+](=O)[O-])ccc1Cl the inhibition was inactive: -13%. In the case of CC(C)N1C(=O)CC2(CCN(CCOC(=O)C(O)(c3ccccc3)c3ccccc3)CC2)C1=O, the inhibition is reported as inactive: -3%. For O=C(OC1CN2CCC1CC2)C(CO)(c1ccccc1)c1ccccc1 (centres undefined), the inhibition was inactive: -9%. CN(C)c1cccc(C(=O)NCC2(N(C)C)CCCCC2)c1 was tested, and the inhibition was inactive: -8.8%. In the case of COc1cccc(C(=O)NCC2(N3CCCCC3)CCCCC2)c1, the inhibition is reported as inactive: -18.3%.
